# Membrane permeability of cyclic peptides

Data: CycPeptMPDB; original report Kelly et al. 2021, doi:10.1021/jacs.0c06115.

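The data file gives no further conditions (lipid, pH, time, direction or concentration), and values from different papers need not be comparable. Other peptides of the study may be missing here. Entries at the database's floor value (log10 P of -10) are not listed.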

PAMPA measures passive passage through an artificial lipid membrane.
P is given in units of 10^-6 cm/s (from log10 values with two decimals); larger means faster passage.

SMILES,PAMPA (10^-6 cm/s)
CC(=O)N1CCC[C@H]1C(=O)N[C@@H]1C(=O)N[C@H](CC(C)C)C(=O)N(C)[C@H](CC(C)C)C(=O)N[C@H](CC(C)C)C(=O)N[C@H](CC(C)C)C(=O)N(C)[C@H](C)C(=O)N[C@@H](CC(C)C)C(=O)N2CCC[C@@H]2C(=O)O[C@@H]1C,13
CC(=O)N1CCC[C@@H]1C(=O)N(C)[C@H](CC(C)C)C(=O)N[C@@H]1C(=O)N[C@H](CC(C)C)C(=O)N[C@H](CC(C)C)C(=O)N[C@H](CC(C)C)C(=O)N[C@@H](C)C(=O)N[C@H](CC(C)C)C(=O)N2CCC[C@@H]2C(=O)O[C@@H]1C,0.036
CC(=O)N1CCC[C@H]1C(=O)N(C)[C@@H](CC(C)C)C(=O)N[C@@H]1C(=O)N[C@@H](CC(C)C)C(=O)N[C@H](CC(C)C)C(=O)N[C@H](CC(C)C)C(=O)N[C@@H](C)C(=O)N[C@@H](CC(C)C)C(=O)N2CCC[C@H]2C(=O)O[C@@H]1C,0.049
CC(=O)N1CCC[C@H]1C(=O)N(C)[C@@H](CC(C)C)C(=O)N[C@@H]1C(=O)N(C)[C@@H](CC(C)C)C(=O)N[C@@H](CC(C)C)C(=O)N[C@H](CC(C)C)C(=O)N(C)[C@H](C)C(=O)N[C@H](CC(C)C)C(=O)N2CCC[C@H]2C(=O)O[C@@H]1C,0.095
CC(=O)N1CCC[C@@H]1C(=O)N(C)[C@@H](CC(C)C)C(=O)N[C@@H]1C(=O)N(C)[C@H](CC(C)C)C(=O)N(C)[C@@H](CC(C)C)C(=O)N(C)[C@H](CC(C)C)C(=O)N(C)[C@@H](C)C(=O)N[C@@H](CC(C)C)C(=O)N2CCC[C@@H]2C(=O)O[C@@H]1C,0.79
CC(=O)N1CCC[C@H]1C(=O)N(C)[C@@H](CC(C)C)C(=O)N[C@@H]1C(=O)N(C)[C@@H](CC(C)C)C(=O)N(C)[C@H](CC(C)C)C(=O)N[C@H](CC(C)C)C(=O)N(C)[C@H](C)C(=O)N[C@H](CC(C)C)C(=O)N2CCC[C@@H]2C(=O)O[C@@H]1C,0.29
CC(=O)N1CCC[C@@H]1C(=O)N(C)[C@@H](CC(C)C)C(=O)N[C@@H]1C(=O)N[C@H](CC(C)C)C(=O)N[C@@H](CC(C)C)C(=O)N(C)[C@@H](CC(C)C)C(=O)N(C)[C@H](C)C(=O)N[C@@H](CC(C)C)C(=O)N2CCC[C@H]2C(=O)O[C@@H]1C,1.7
CC(=O)N1CCC[C@H]1C(=O)N(C)[C@H](CC(C)C)C(=O)N[C@@H]1C(=O)N[C@H](CC(C)C)C(=O)N[C@H](CC(C)C)C(=O)N(C)[C@@H](CC(C)C)C(=O)N(C)[C@@H](C)C(=O)N[C@@H](CC(C)C)C(=O)N2CCC[C@@H]2C(=O)O[C@@H]1C,6.8
CC(=O)N1CCC[C@@H]1C(=O)N(C)[C@@H](CC(C)C)C(=O)N[C@@H]1C(=O)N[C@H](CC(C)C)C(=O)N[C@@H](CC(C)C)C(=O)N(C)[C@H](CC(C)C)C(=O)N(C)[C@@H](C)C(=O)N[C@@H](CC(C)C)C(=O)N2CCC[C@H]2C(=O)O[C@@H]1C,2.5
CC(=O)N1CCC[C@H]1C(=O)N(C)[C@H](CC(C)C)C(=O)N[C@@H]1C(=O)N[C@H](CC(C)C)C(=O)N[C@H](CC(C)C)C(=O)N(C)[C@H](CC(C)C)C(=O)N(C)[C@H](C)C(=O)N[C@H](CC(C)C)C(=O)N2CCC[C@H]2C(=O)O[C@@H]1C,0.36
CC(=O)N1CCC[C@@H]1C(=O)N(C)[C@H](CC(C)C)C(=O)N[C@@H]1C(=O)N[C@H](CC(C)C)C(=O)N[C@@H](CC(C)C)C(=O)N(C)[C@@H](CC(C)C)C(=O)N[C@@H](C)C(=O)N[C@H](CC(C)C)C(=O)N2CCC[C@H]2C(=O)O[C@@H]1C,1.3
CC(=O)N1CCC[C@H]1C(=O)N(C)[C@H](CC(C)C)C(=O)N[C@@H]1C(=O)N[C@H](CC(C)C)C(=O)N[C@H](CC(C)C)C(=O)N[C@H](CC(C)C)C(=O)N[C@@H](C)C(=O)N[C@H](CC(C)C)C(=O)N2CCC[C@H]2C(=O)O[C@@H]1C,0.42
CC(=O)N1CCC[C@H]1C(=O)N[C@@H]1C(=O)N[C@H](CC(C)C)C(=O)N[C@@H](CC(C)C)C(=O)N(C)[C@@H](CC(C)C)C(=O)N(C)[C@H](CC(C)C)C(=O)N(C)[C@@H](C)C(=O)N[C@@H](CC(C)C)C(=O)N2CCC[C@@H]2C(=O)O[C@@H]1C,4.8
CC(=O)N1CCC[C@H]1C(=O)N(C)[C@@H](CC(C)C)C(=O)N[C@@H]1C(=O)N[C@@H](CC(C)C)C(=O)N(C)[C@@H](CC(C)C)C(=O)N(C)[C@H](CC(C)C)C(=O)N[C@H](C)C(=O)N[C@@H](CC(C)C)C(=O)N2CCC[C@@H]2C(=O)O[C@@H]1C,3
CC(=O)N1CCC[C@H]1C(=O)N[C@@H]1C(=O)N[C@H](CC(C)C)C(=O)N(C)[C@@H](CC(C)C)C(=O)N[C@@H](CC(C)C)C(=O)N[C@@H](CC(C)C)C(=O)N(C)[C@H](C)C(=O)N[C@@H](CC(C)C)C(=O)N2CCC[C@@H]2C(=O)O[C@@H]1C,1.9